Laboratory results from patent publication US9216999B2, “Substituted pyrrolo[2,3-h][1,6]naphthyridines and compositions thereof as JAK inhibitors” (priority 2011, dated 2015).

Sequences of proteins named here, by UniProt entry; tags and fusion partners are left off. A change or cut given only in a name is not applied to a line headed by its entry.
UniProt P52333: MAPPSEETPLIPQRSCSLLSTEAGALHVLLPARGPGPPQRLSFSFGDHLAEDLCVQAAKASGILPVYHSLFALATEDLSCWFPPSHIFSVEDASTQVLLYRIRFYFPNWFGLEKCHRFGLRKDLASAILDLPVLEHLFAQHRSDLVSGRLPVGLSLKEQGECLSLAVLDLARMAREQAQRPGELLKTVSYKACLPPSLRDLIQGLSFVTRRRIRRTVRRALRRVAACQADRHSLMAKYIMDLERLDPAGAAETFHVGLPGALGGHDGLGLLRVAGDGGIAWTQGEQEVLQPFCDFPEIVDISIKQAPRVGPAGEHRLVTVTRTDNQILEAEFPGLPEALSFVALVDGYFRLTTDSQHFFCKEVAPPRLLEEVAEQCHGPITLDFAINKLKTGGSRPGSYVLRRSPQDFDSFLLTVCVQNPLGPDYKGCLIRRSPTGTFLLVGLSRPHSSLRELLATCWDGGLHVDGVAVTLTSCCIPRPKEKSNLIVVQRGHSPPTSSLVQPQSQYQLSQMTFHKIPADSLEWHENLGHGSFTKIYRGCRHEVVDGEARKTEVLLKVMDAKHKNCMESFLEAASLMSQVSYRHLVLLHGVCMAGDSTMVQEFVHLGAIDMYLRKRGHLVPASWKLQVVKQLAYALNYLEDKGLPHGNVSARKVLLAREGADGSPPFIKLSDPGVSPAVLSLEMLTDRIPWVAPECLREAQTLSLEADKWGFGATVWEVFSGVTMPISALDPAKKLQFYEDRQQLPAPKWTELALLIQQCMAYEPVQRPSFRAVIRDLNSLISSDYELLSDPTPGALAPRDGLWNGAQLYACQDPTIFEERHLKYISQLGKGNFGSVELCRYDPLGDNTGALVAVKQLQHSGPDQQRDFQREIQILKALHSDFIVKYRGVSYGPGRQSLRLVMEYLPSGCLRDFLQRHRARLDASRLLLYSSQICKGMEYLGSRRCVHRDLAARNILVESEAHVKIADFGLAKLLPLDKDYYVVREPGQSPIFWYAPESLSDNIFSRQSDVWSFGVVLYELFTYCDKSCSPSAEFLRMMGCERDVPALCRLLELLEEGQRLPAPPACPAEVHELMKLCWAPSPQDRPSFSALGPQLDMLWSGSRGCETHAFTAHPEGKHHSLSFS
UniProt P29597: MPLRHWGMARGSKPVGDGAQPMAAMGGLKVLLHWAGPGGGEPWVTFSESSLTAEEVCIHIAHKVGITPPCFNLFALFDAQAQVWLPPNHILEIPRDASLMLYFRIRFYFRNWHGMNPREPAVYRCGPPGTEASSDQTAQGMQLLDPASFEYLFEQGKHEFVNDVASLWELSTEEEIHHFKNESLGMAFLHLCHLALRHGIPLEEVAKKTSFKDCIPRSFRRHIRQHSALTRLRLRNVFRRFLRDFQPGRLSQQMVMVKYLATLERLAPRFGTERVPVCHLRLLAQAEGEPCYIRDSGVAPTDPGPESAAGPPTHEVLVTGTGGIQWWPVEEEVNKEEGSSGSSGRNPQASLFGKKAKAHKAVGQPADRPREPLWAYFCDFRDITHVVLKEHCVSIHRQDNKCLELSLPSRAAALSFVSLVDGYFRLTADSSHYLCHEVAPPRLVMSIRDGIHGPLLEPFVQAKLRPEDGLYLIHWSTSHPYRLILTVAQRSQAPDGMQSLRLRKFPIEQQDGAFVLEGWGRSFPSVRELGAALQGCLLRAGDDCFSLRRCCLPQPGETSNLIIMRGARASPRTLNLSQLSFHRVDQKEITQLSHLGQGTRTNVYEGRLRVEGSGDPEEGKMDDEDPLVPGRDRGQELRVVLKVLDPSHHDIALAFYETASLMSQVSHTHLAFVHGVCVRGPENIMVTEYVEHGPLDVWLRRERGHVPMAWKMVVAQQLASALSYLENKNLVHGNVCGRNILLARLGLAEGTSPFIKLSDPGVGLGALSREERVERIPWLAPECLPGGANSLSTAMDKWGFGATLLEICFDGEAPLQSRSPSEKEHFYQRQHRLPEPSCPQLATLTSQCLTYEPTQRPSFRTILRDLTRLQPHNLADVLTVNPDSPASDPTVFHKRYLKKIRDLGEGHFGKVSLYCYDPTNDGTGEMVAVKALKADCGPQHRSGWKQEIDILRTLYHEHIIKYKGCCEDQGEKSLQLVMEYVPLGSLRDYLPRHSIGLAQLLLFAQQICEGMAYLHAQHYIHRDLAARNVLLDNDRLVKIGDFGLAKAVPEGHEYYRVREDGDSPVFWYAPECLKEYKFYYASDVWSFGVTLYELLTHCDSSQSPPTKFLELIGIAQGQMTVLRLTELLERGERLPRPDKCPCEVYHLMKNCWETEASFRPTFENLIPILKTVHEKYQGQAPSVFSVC

What was measured:
JAK2 = JAK2 (Homo sapiens (Human), UniProt O60674); experiment: JAK2 enzyme assay (Assay Example^b 1)
JAK3 = JAK3 (Homo sapiens (Human), UniProt P52333); experiment: JAK3 enzyme assay (Assay Example^b 1)
JAK1 = JAK1 (Homo sapiens (Human), UniProt P23458); experiment: JAK1 enzyme assay (Assay Example^b 1)
Tyk2 [1] = biological target: T1, Tyk2 (Homo sapiens (Human), UniProt P29597); experiment: Tyk2 enzyme assay (Assay Example^b 1)
Tyk2 [2] = biological target: T1, Tyk2; experiment: Enzyme assay (Assay Example^a 1), Tyk2; assay type: biochemical; details: ATP 100 μM; Table^a 154; read-out: IC50 (μM) TYK2
[3] = IC50 (μM) JAK2, Table^b 80, ATP 100 μM
[4] = IC50 (μM) JAK3, Table^b 80, ATP 100 μM
[5] = IC50 (μM) TYK2, Table^b 80, ATP 100 μM
[6] = IC50 (μM) JAK3, Table^b 78, ATP 100 μM
[7] = IC50 (μM) JAK1, Table^b 80, ATP 100 μM

Structure (SMILES) | IC50 (JAK3; [4]) [µM] | IC50 (JAK3; IC50 (μM) JAK3, ATP 100 μM) [µM] | other results
CO[C@H]1CC[C@H](n2ccc(=O)c3cnc4[nH]ccc4c32)CC1 [compound 70] |  |  | IC50 (JAK2; [3]): > 1 µM
O=c1ccn(C2CCN(Cc3csc([N+](=O)[O-])c3)CC2)c2c1cnc1[nH]ccc12 [compound 79] | 0.094 |  | 
C[C@@H]1CCN(C(=O)Nc2cccc(C(F)(F)F)c2)C[C@@H]1n1ccc(=O)c2cnc3[nH]ccc3c21 (racemic) [compound 29] | 0.2 |  | 
O=c1ccn(C2CCN(Cc3ccc(F)c(C(F)(F)F)c3)CC2)c2c1cnc1[nH]ccc12 [compound 78] | > 1 |  | 
N#CCCN(CCC#N)CC1CCC(n2c(=O)[nH]c(=O)c3cnc4[nH]ccc4c32)CC1 (centres unmarked) [compound 116] |  | 0.036 | 
C[C@@H]1CCN(C(=O)OC(C)(C)C)C[C@@H]1n1ccc(=O)c2cnc3[nH]ccc3c21 (racemic) [compound 45] | 0.04 |  | 
CSCn1c(=O)c2cnc3[nH]ccc3c2n(C2CCCCC2)c1=O [compound 147] |  | > 1 | 
O=c1[nH]c(=O)n(C2CCN(CCC3CCSCC3)CC2)c2c1cnc1[nH]ccc12 [compound 90] |  | > 1 | 
COCCNC[C@H]1CC[C@H](n2c(=O)[nH]c(=O)c3cnc4[nH]ccc4c32)CC1 [compound 131] |  | > 1 | 
C[C@@H]1CCN(S(=O)(=O)c2cccc(C(F)(F)F)c2)C[C@@H]1n1ccc(=O)c2cnc3[nH]ccc3c21 (racemic) [compound 33] | 0.096 |  | IC50 (JAK1; IC50 (μM) JAK1): 0.0098 µM; IC50 (Tyk2 [1]; IC50 (μM) TYK2): 0.4 µM
FC(F)(F)c1cccc(CN2CCC(c3nnn4cnc5[nH]ccc5c34)CC2)c1 [compound 39] |  |  | IC50 (Tyk2 [2]): > 1 µM
Cc1cn([C@H]2CN(Cc3ccccc3)CC[C@H]2C)c2c(cnc3[nH]ccc32)c1=O (racemic) [compound 23] | 0.1 |  | IC50 (Tyk2 [1]; [5]): > 1 µM
c1cc2c(ncn3nnc(C4CCN(Cc5csnn5)CC4)c23)[nH]1 [compound 152] |  |  | IC50 (Tyk2 [2]): 0.11 µM
O=S1(=O)C=CN(C2CCCCC2)c2c1cnc1[nH]ccc21 [compound 12] |  |  | IC50 (JAK3; [6]): 1.3 µM
O=C(CC(F)(F)F)N(CC(F)(F)F)C[C@H]1CC[C@H](n2c(=O)[nH]c(=O)c3cnc4[nH]ccc4c32)CC1 [compound 155] |  | 0.2 | 
O=c1ccn(C2CCN(Cc3ccc4c(c3)OC(F)(F)O4)CC2)c2c1cnc1[nH]ccc12 [compound 84] | 0.13 |  | IC50 (JAK1; [7]): 0.00075 µM
C[C@@H]1CCN(C(=O)c2ccc(C(F)(F)F)cc2)C[C@@H]1n1ccc(=O)c2cnc3[nH]ccc3c21 (racemic) [compound 34] | > 1 |  | 
C[C@@H]1CCN(S(=O)(=O)CC(F)(F)F)C[C@@H]1n1ccc(=O)c2cnc3[nH]ccc3c21 (racemic) [compound 11] |  |  | IC50 (JAK1; IC50 (μM) JAK1, Table^b 78, ATP 100 μM): 0.012 µM; IC50 (JAK3; [6]): 0.034 µM
O=c1c2cnc3[nH]ccc3c2n(C2CCCCC2)c(=O)n1C1CCCC1 [compound 148] |  | > 1 | 
O=c1[nH]c(=O)n([C@H]2CC[C@H](CN3CCC(C(F)(F)F)CC3)CC2)c2c1cnc1[nH]ccc12 [compound 128] |  | > 1 | 

Structure (SMILES) | IC50 (JAK3; [4]) [µM] | IC50 (JAK3; IC50 (μM) JAK3, ATP 100 μM) [µM] | other results
C[C@@H]1CCN(C(=O)Cc2ccc(F)cc2)C[C@@H]1n1ccc(=O)c2cnc3[nH]ccc3c21 (racemic) [compound 32] | 0.55 |  | IC50 (JAK2; [3]): 0.77 µM; IC50 (JAK1; [7]): 0.081 µM
C[C@@H]1CCN(C2CCCC2)C[C@@H]1n1ccc(=O)c2cnc3[nH]ccc3c21 (racemic) [compound 47] | 0.11 |  | IC50 (JAK1; [7]): 0.11 µM
O=c1[nH]c(=O)n([C@H]2CC[C@H](CNCC(F)(F)F)CC2)c2c1cnc1[nH]ccc12 [compound 102] |  | 0.32 | 
N#CCN1CCC(n2c(=O)[nH]c(=O)c3cnc4[nH]ccc4c32)CC1 [compound 94] |  | > 1 | 
N#CCCCCN1CCC(n2c(=O)[nH]c(=O)c3cnc4[nH]ccc4c32)CC1 [compound 96] |  | > 1 | 
N#CCCCN1CCC(n2c(=O)[nH]c(=O)c3cnc4[nH]ccc4c32)CC1 [compound 98] |  | > 1 | 
O=c1[nH]c(=O)n([C@H]2CC[C@H](CN3CC(O)(C(F)(F)F)C3)CC2)c2c1cnc1[nH]ccc12 [compound 129] |  | 0.81 | IC50 (JAK1; IC50 (μM) JAK1): 0.0079 µM; IC50 (Tyk2 [1]; IC50 (μM) TYK2): 0.36 µM
O=c1[nH]c(=O)n([C@H]2CC[C@H](CNCC3(O)CCCCC3)CC2)c2c1cnc1[nH]ccc12 [compound 126] |  |  | IC50 (JAK2; IC50 (μM) JAK2, ATP 100 μM): 0.36 µM; IC50 (Tyk2 [1]; IC50 (μM) TYK2, ATP 100 μM): > 1 µM
C[C@@H]1CCN(CCc2ccc(F)cc2)C[C@@H]1n1ccc(=O)c2cnc3[nH]ccc3c21 (racemic) [compound 46] | 0.046 |  | 
COCn1c(=O)c2cnc3[nH]ccc3c2n(C2CCCCC2)c1=O [compound 143] |  | > 1 | 
C[C@@H]1CCN(Cc2ccccc2C#N)C[C@@H]1n1ccc(=O)c2cnc3[nH]ccc3c21 (racemic) [compound 43] | 0.15 |  | 
c1cc2c3c(cnc2[nH]1)COCN3C1CCCCC1 [compound 2] |  |  | IC50 (Tyk2 [1]; IC50 (μM) TYK2, Table^b 79, ATP 100 μM): 3.1 µM; IC50 (JAK3; [6]): 1.2 µM
CC(C)CS(=O)(=O)N1CC[C@@H](C)[C@@H](n2ccc(=O)c3cnc4[nH]ccc4c32)C1 (racemic) [compound 10] |  |  | IC50 (JAK3; [6]): 0.034 µM
ClC[C@H]1CC[C@H](c2nnn3cnc4[nH]ccc4c23)CC1 [compound 75] |  |  | IC50 (Tyk2 [2]): 0.0012 µM
CCOC(=O)c1ccc(CN2CCC(n3ccc(=O)c4cnc5[nH]ccc5c43)CC2)o1 [compound 73] | > 1 |  | 
O=c1ccn(C2CCN(Cc3ccc(C(F)(F)F)nc3)CC2)c2c1cnc1[nH]ccc12 [compound 76] | > 1 |  | 
c1cc2c(ncn3nnc(C4CCC(N5CCOCC5)CC4)c23)[nH]1 (centres unmarked) [compound 124] |  |  | IC50 (Tyk2 [2]): 0.55 µM
C[C@@H]1CCN(Cc2ccccc2)C[C@@H]1n1ccc(=O)c2cnc3[nH]cc(Cl)c3c21 (racemic) [compound 22] | 0.37 |  | 
O=c1c2cnc3[nH]ccc3c2n(C2CCCCC2)c(=O)n1CCO [compound 140] |  | 0.78 | 
O=c1c2cnc3[nH]ccc3c2n(C2CCCCC2)c(=O)n1CC1CCCO1 (racemic) [compound 150] |  | 0.64 | 

Structure (SMILES) | IC50 (JAK3; [4]) [µM] | IC50 (JAK3; IC50 (μM) JAK3, ATP 100 μM) [µM] | other results
O=C1NCc2cnc3[nH]ccc3c2N1C1CCN(Cc2ccccc2)CC1 [compound 59] |  |  | IC50 (JAK1; [7]): 0.042 µM
O=c1ccn(C2CCN(Cc3cnc(Cl)s3)CC2)c2c1cnc1[nH]ccc12 [compound 77] | 1 |  | 
N#CCCN1CCC(n2c(=O)[nH]c(=O)c3cnc4[nH]ccc4c32)CC1 [compound 100] |  | > 1 | 
O=c1c2cnc3[nH]ccc3c2n(C2CCCCC2)c(=O)n1CCCO [compound 141] |  | 0.8 | 
O=c1ccn(C2CCN(Cc3cc(Br)cs3)CC2)c2c1cnc1[nH]ccc12 [compound 82] |  |  | IC50 (JAK1; IC50 (μM) JAK1): 0.0021 µM
CC(CO)(CO)Cn1c(=O)c2cnc3[nH]ccc3c2n(C2CCCCC2)c1=O [compound 151] |  |  | IC50 (Tyk2 [1]; IC50 (μM) TYK2, ATP 100 μM): > 1 µM
NCCN1CCC(n2c(=O)[nH]c(=O)c3cnc4[nH]ccc4c32)CC1 [compound 88] |  | > 1 | 
C[C@@H]1CCN(Cc2ccccc2)C[C@@H]1n1cc(Br)c(=O)c2cnc3[nH]ccc3c21 (racemic) [compound 24] | 0.56 |  | IC50 (JAK1; IC50 (μM) JAK1): 0.025 µM
C[C@@H]1CCN(C(=O)Nc2nncs2)C[C@@H]1n1ccc(=O)c2cnc3[nH]ccc3c21 (racemic) [compound 36] | 0.0038 |  | 
O=c1[nH]c(=O)n(C2CCN(CCNCC3CC3)CC2)c2c1cnc1[nH]ccc12 [compound 110] |  | > 1 | IC50 (Tyk2 [1]; IC50 (μM) TYK2, ATP 100 μM): > 1 µM
O=c1[nH]c(=O)n(C2CCCCC2)c2c1cnc1[nH]ccc12 [compound 53] |  |  | IC50 (JAK1; [7]): 0.0074 µM; IC50 (Tyk2 [1]; [5]): 0.04 µM
O=c1[nH]c(=O)n([C@H]2CC[C@H](CN3CC(O)C3)CC2)c2c1cnc1[nH]ccc12 [compound 113] |  | > 1 | 
O=c1[nH]c(=O)n([C@H]2CC[C@H](CN3CCS(=O)(=O)CC3)CC2)c2c1cnc1[nH]ccc12 [compound 114] |  | 0.52 | 
O=c1c2cnc3[nH]ccc3c2n(C2CCCCC2)c(=O)n1CCN1CCOCC1 [compound 142] |  |  | IC50 (JAK2; IC50 (μM) JAK2, ATP 100 μM): > 1 µM
C[C@@H]1CCN(S(=O)(=O)c2cccc(C#N)c2)C[C@@H]1n1ccc(=O)c2cnc3[nH]ccc3c21 (racemic) [compound 26] | 0.1 |  | 
O=C1NCc2cnc3[nH]ccc3c2N1C1CCN(Cc2cncs2)CC1 [compound 66] | > 1 |  | 
COCCn1c(=O)c2cnc3[nH]ccc3c2n(C2CCCCC2)c1=O [compound 145] |  | > 1 | 
Cc1cc(NC(=O)N2CC[C@@H](C)[C@@H](n3ccc(=O)c4cnc5[nH]ccc5c43)C2)sn1 (racemic) [compound 37] | 0.0028 |  | 
O=c1[nH]c(=O)n(C2CCN(Cc3ccccc3)CC2)c2c1cnc1[nH]ccc12 [compound 49] | > 1 |  | 
